Screens deposited in PubChem by several laboratories.
A selection: hits, their analogues and other compounds. The true share with any hit is near 1.2%.
TbMetRS inhib = Trypanosoma brucei MetRS inhibition | inhibition, % at 11.9 µM | 360,000 compounds, 0.4% hits | purified T. brucei MetRS, ATP depletion, Kinase-Glo luminescence;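 active means inhibition above a per-plate cutoff of the control wells' mean inhibition plus 3 SD, cut at about 5.5% in these data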
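Material: parasite MetRS enzyme / Replication: singlicate, one well per compound / Signal: luminescence of leftover ATP / Schedule: 2 h aminoacylation at 25 °C after 15 min preincubation / Medium: HEPES-MgCl2-KCl buffer plus DTT, spermine, BSA, pyrophosphatase / Doses: 11.9 µM single point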
UUG fidelity = alters start codon recognition fidelity in yeast; S. cerevisiae UUG-firefly luciferase reporter, luminescence/redox ratio; activity score, % at 18.7 µM; actives 0.13% (n = 350,000); AID 602363;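 active = replicate mean at a twofold rise or more, about +100% in these data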;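 also: firefly luciferase made from a UUG start codon reports start codon fidelity; reporter light over untreated wells divided by growth signal over untreated wells; some hits fall short of that in this replicate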
Arrestin-AP2 inh = human beta-arrestin and AP2 interaction inhibition; FITC-arrestin peptide / GST-AP2 beads, flow cytometry; AP2 beta2 appendage carries R879A mutation; inhibition, % at 10 µM; 340,000 compounds, 0.31% hits;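 active means inhibition above a set limit, near 3 SD of compounds lacking own fluorescence, cut at about 54% in these data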
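System: GST-AP2 R879A glutathione beads | Also added: FITC-arrestin peptide, 50 nM | Times: 12 min plus 1 h, RT | Signal: Bead flow cytometry, FITC channel | Buffer or medium: PBS with 0.05% Tween 20 and 0.1% BSA | Read-out basis: Percent drop in bead-associated FITC signal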
Rce1 inhib = inhibitors of yeast Ras-converting enzyme; yeast membranes, quenched prenylated peptide cleavage fluorescence; calls only; 290,000 compounds, 0.27% hits; AID 2563;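 active means fall in fluorescence gain of 50% or more versus controls, with final raw signal at or below 3038400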
DSG3 Ab inh = human desmoglein-3 autoantibody binding inhibition | P32926 | DSG3-coupled beads, scFv-anti-DSG3-GFP binding, flow cytometry; stronger effect = lower value | binding (percent of control), % at 10 µM | 310,000 compounds, 0.48% hits;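 active means binding more than 3 SD below its plate's average and above zero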;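 further: hits lower antibody fragment binding to DSG3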
Hits are given with their value; 0 = inactive; - = not tested or not shown; + = active, no number.

SMILES	TbMetRS inhib	UUG fidelity	Arrestin-AP2 inh	Rce1 inhib	DSG3 Ab inh
COc1cc(OC)c(/C=N/NC(=O)c2ccc(NC(C)=O)cc2)cc1Br	0	-	0	0	74
O=C1N[C@H]2CC=C[C@H]2Nc2ccccc21	0	0	0	-	68
CCCCOc1ccc(-c2cc(C(F)(F)F)c(C#N)c(SCC(=O)O)n2)cc1	0	-	0	+	0
N#Cc1c(C(F)(F)F)cc(-c2ccc(F)cc2)nc1SCC(=O)O	0	-	0	0	0
COc1cccc(NC(=O)N(C)C[C@@H]2Oc3ncc(/C=C/c4ccccc4)cc3C(=O)N([C@@H](C)CO)C[C@H]2C)c1	-	0	-	-	-
C[C@@H]1CCCCO[C@@H](CN(C)Cc2ccc(C(F)(F)F)cc2)[C@H](C)CN([C@@H](C)CO)C(=O)c2cc(NS(C)(=O)=O)ccc2O1	-	0	-	-	-
CN1C(=O)c2cc(NC(=O)NCc3ccccc3)ccc2OC[C@H]2O[C@H](CC(=O)O)CC[C@H]21	-	0	-	-	-
CCCCc1cc(=O)oc2cc(C)c(CN3CCCC3)c(O)c12	0	0	0	0	89
CCc1cc(=O)oc2cc(C)c(CN3CCCC(C)C3)c(O)c12 (stereo not given)	0	0	0	0	0
C[C@@H]1CN([C@H](C)CO)C(=O)c2cc(C#Cc3ccccc3F)cnc2O[C@@H]1CN(C)S(C)(=O)=O	-	0	-	-	-
COc1ccc(NC(=O)N(C)C[C@@H]2OCCCC[C@@H](C)Oc3ccc(NC(=O)Nc4ccc5c(c4)OCO5)cc3C(=O)N([C@H](C)CO)C[C@@H]2C)cc1	-	0	-	-	-
Cc1ccc(SCc2c(C(=O)N/N=C/c3ccc(C)o3)nnn2-c2nonc2N)cc1	0	0	-	-	86
Nc1nonc1-n1nnc(C(=O)N/N=C/c2ccco2)c1CSc1ccc(Cl)cc1	0	0	-	-	0
Cc1ccc(/C=N/NC(=O)c2nnn(-c3nonc3N)c2CSc2ccccc2)cc1	0	-	0	0	0
Nc1nonc1-n1nnc(C(=O)N/N=C/c2cccc(Cl)c2)c1CSc1ccccc1	0	0	0	-	0
Nc1nonc1-n1nnc(C(=O)N/N=C/c2cccc(Cl)c2)c1CSc1ccc(Cl)cc1	0	0	0	+	0
Nc1nonc1-n1nnc(C(=O)N/N=C/c2ccccc2)c1CSc1ccc(Cl)cc1	0	-	0	+	0
Cc1ccc(SCc2c(C(=O)N/N=C/c3ccccc3)nnn2-c2nonc2N)cc1	0	-	0	+	-
CCCNC(=O)Nc1ccc2c(c1)C(=O)N(C)C[C@@H](OC)[C@@H](C)CN(C(=O)C1CCOCC1)[C@@H](C)CO2	-	0	-	-	-
C[C@H]1CN([C@@H](C)CO)C(=O)c2cc(NS(C)(=O)=O)ccc2O[C@@H]1CN(C)Cc1ccc(Oc2ccccc2)cc1	-	0	-	-	-
Cc1ccc(-c2c(C(=O)N/N=C/c3ccoc3)nnn2-c2nonc2N)cc1	0	0	0	0	0
Cc1ccc(-c2c(C(=O)N/N=C/c3cccc(Cl)c3)nnn2-c2nonc2N)cc1	0	0	0	+	0
Cc1ccc(/C=N/NC(=O)c2nnn(-c3nonc3N)c2C(C)C)o1	0	0	0	+	0
CCCN(C)C[C@H]1Oc2ncc(-c3cccnc3)cc2C(=O)N([C@H](C)CO)C[C@H]1C	-	0	-	-	-
CCOC(=O)c1nnn(-c2nonc2NC(C)=O)c1C	0	0	0	0	52
SMILES	TbMetRS inhib	UUG fidelity	Arrestin-AP2 inh	Rce1 inhib	DSG3 Ab inh
COc1ccc(S(=O)(=O)N(C)C[C@@H]2OCCCC[C@H](C)Oc3ccc(NC(=O)Nc4c(C)noc4C)cc3C(=O)N([C@H](C)CO)C[C@@H]2C)cc1	-	0	-	-	-
O=C(O)c1ccc2c3c(cccc13)C(=O)N(c1ccccc1)C2=O	0	0	0	0	16
CCCc1cn(CC[C@@H]2CC[C@H](NC(=O)Cc3cccnc3)[C@H](CO)O2)nn1	-	0	-	-	-
CC(C)NC(=O)N(C)C[C@H]1Oc2ncc(-c3cncnc3)cc2C(=O)N([C@@H](C)CO)C[C@@H]1C	-	0	-	-	-
CCOC(=O)c1sc2nc(CC(C)C)c3c(c2c1N)CCC3	0	-	0	0	-12
CNC(=O)C[C@H]1CC[C@@H]2[C@H](COC[C@H](O)CN2C(=O)Nc2cccc(OC)c2)O1	-	0	-	-	-
COc1ccc(C(=O)Nc2ccc3c(c2)C(=O)c2ccccc2C3=O)cc1OC	0	-	0	0	72
COc1cc(C(=O)Nc2ccc3c(c2)C(=O)c2ccccc2C3=O)cc(OC)c1OC	0	0	0	0	0
Cc1cc(NC(=O)c2oc3ccccc3c2C)ccc1-n1cnnn1	0	0	0	+	0
N#C/C(=C/c1ccc(-c2ccc([N+](=O)[O-])cc2)o1)C(=O)Nc1nc(-c2cccs2)cs1	0	-	0	-	74
CCOc1ccc2[nH]c(=O)c(CN(CCN3CCOCC3)Cc3nnnn3C(C)(C)CC)cc2c1	0	0	0	+	0
O=C(CCN1CCCCC1)N[C@@H]1CC[C@@H](CCn2cc(-c3ccc(F)cc3)nn2)O[C@@H]1CO	-	0	-	-	-
O=C1C=CC(=O)c2c(O)c(CO)c(CO)c(O)c21	0	-	58	-	25
O=c1c(CO)cc(CO)cc(CO)c1O	0	-	0	0	0
CC1C=NC(S(=O)(=O)N2CC[C@H]3[C@@H](CO)N(C)c4ccc(C#Cc5cccnc5)cc4[C@H]32)=N1 (stereo not given in full)	-	0	-	-	-
CO/N=C(\c1nonc1N)N1CCN(c2ccc([N+](=O)[O-])cc2Cl)CC1	7.0	0	0	0	0
CC(=O)O/N=C(/c1nonc1N)N1CCN(c2ccc([N+](=O)[O-])cc2Cl)CC1	0	-	0	0	0
Cc1ccc(Oc2ccc(Cl)cc2NC(=O)c2cnccn2)cc1	0	0	0	0	79
O=C(Nc1ccccc1Oc1ccccc1)c1cnccn1	0	0	0	0	0
C[C@H](CO)N1C[C@H](C)[C@@H](CN(C)C)Oc2cc(C#CC3(O)CCCC3)ccc2S1(=O)=O	-	0	-	-	-
C[C@@H]1CN([C@H](C)CO)C(=O)Cc2cc(NC(=O)CCC(F)(F)F)ccc2O[C@H]1CN(C)C(=O)Nc1ccc2c(c1)OCO2	-	0	-	-	-
O=C(NCCc1c[nH]c2ccccc12)OCCSS(=O)(=O)O	0	0	0	+	0
CCC1CCCCN1C(=O)NC(=O)c1ccccc1 (stereo not given)	0	0	0	+	-
O=C(C[C@H]1CC[C@H]2[C@@H](COC[C@H](O)CN2C(=O)Nc2cc(Cl)cc(Cl)c2)O1)N1CCCCC1	-	0	-	-	-
CC1(C)CC(=O)C=C(c2cc3ccccc3s2)C1	0	0	0	0	85
O=C1C=C(c2cc3ccccc3s2)CCC1	0	0	0	0	0
O=[N+]([O-])c1ccc(CSc2ccc(-c3ccccn3)nn2)cc1	0	-	0	0	83
COc1ccccc1-c1ccc(SCc2ccc([N+](=O)[O-])cc2)nn1	0	-	0	0	0
Cc1noc(C)c1S(=O)(=O)Nc1ccc2c(c1)CC(=O)N([C@@H](C)CO)C[C@@H](C)[C@H](CN(C)Cc1ccc(C(=O)O)cc1)O2	-	0	-	-	-
Cc1oc(S(=O)(=O)N2CCCCC2)cc1NC(=O)Nc1ccc(F)cc1	0	-	0	-	91
